Laboratory results as given in ChEMBL document CHEMBL2163206, “New nitrogen containing substituents at the indole-2-carboxamide yield high potent and broad spectrum indolylarylsulfone HIV-1 non-nucleoside reverse transcriptase inhibitors” (J Med Chem, 2012).

Molecular target: Human immunodeficiency virus type 1 reverse transcriptase (Human immunodeficiency virus 1, UniProt Q72547)
Assay: Inhibition of wild type HIV1 reverse transcriptase RNA-dependent DNA polymerase activity using poly(rA)/oligo(dT)10:1 and [3H]-dTTP substrate

With Cc1cc(C#N)cc(C)c1Oc1nc(Nc2ccc(C#N)cc2)nc(N)c1Br [ETRAVIRINE] as the molecule, how does the IC50 read?
Its IC50 is 10 nM.
